Counter-ions that a name gives are not always drawn.
Assays:
[1] = Aqueous solubility at 25° C. of carvedilol free base and three salts (Table 13); format: physicochemical
[2] = Solubility in water of carvedilol free base and monocitrate salt over time (Table 11); format: physicochemical; settings: 25° C., 48 hr

| Compound | pH of the solution ([1]; 24 hr) | pH of the solution ([1]; 1 hr) | pH of the solution ([1]; 4 hr) | pH of the solution ([1]; 24 hr, HBr) | pH of the filtered solution [2] |
| --- | --- | --- | --- | --- | --- |
| COc1ccccc1OCCNCC(O)COc1cccc2[nH]c3ccccc3c12 (centres unmarked) [Carvedilol Free Base] | (pH = 7.0) |  |  |  |  |
| COc1ccccc1OCCNCC(O)COc1cccc2[nH]c3ccccc3c12 (centres unmarked) [HBr salt, Carvedilol HBr] |  | 6.1 | 6.3 | 6.2 |  |
| COc1ccccc1OCCNCC(O)COc1cccc2[nH]c3ccccc3c12.O=P(O)(O)O (centres unmarked) [Phosphate salt, carvedilol phosphate] | 3.0 | 3.0 | 3.0 |  |  |
| Carvedilol Monocitrate Monohydrate [Carvedilol Mono-Citrate Salt] |  |  |  |  | 3.0 |

Source: US20050175695A1, “Carvedilol free base, salts, anhydrous forms or solvates thereof, corresponding pharmaceutical compositions, controlled release formulations, and treatment or delivery methods” (priority 2003, published 2005)
